From patent publication US8273710B2, “Protein hydrolysate enriched in peptides inhibiting DPP-IV and their use” (Campina Nederland Holding B.V., priority 2004, dated 2012)
pIC50: −log10 of the molar value.

The chains behind the UniProt entries cited, without tags or fusion partners. Where a name states a change or a piece, a line headed by the entry shows the natural chain unless it says otherwise.
UniProt P22411: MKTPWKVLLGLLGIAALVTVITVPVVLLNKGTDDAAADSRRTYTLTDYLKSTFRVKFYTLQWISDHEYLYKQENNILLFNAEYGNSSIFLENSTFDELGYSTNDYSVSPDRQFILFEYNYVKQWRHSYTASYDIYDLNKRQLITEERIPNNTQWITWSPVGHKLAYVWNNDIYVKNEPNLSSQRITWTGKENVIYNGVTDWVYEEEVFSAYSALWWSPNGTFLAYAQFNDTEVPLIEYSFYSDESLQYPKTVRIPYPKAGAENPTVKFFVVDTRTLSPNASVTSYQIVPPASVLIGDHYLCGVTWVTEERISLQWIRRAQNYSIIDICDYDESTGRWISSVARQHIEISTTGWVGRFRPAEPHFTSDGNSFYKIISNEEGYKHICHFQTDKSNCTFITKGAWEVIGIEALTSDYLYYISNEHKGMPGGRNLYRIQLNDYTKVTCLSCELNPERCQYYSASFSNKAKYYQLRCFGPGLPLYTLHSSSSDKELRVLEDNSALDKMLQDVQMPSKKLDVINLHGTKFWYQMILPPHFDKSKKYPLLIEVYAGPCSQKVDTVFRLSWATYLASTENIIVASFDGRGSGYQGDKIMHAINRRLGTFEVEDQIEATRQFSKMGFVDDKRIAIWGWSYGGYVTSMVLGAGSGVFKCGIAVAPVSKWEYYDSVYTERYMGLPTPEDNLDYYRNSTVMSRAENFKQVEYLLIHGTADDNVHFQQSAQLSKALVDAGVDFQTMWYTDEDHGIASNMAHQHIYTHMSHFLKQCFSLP

Molecular target: DPP-IV (Sus scrofa, UniProt P22411)
Test: biochemical
Excerpt: About 40 protein hydrolysates were subjected to on-line liquid chromatography (LC)-biochemical detection (BCD)-mass spectrometry (MS), a method that allowed for separation of crude extract by HPLC, after which the presence of bioactive compounds was detected by means of an on-line biochemical assay. This method for on-line fractionation and characterisation has extensively been described by Van Elswijk et al. (J Chromatography A (2003) 1020:45-58).
A variety of protein hydrolysates prepared according to example 2 were further investigated for DPP-IV inhibiting activity. Hydrolysed protein samples were analysed for DPP-IV inhibitory activity in a high-resolution screening (HRS) instrument, as discussed in Van Elswijk et al. (supra).
DPP-IV inhibition was monitored via the substrate conversion based bioassay format as disclosed in example 1. In addition to the DPP-IV inhibitory activity data, chemical information was obtained in real-time by allowing part of the HPLC effluent to be directed towards a mass spectrometer. […] The assay conditions applied ensured maximum enzyme activity by applying substrate saturation.

CC[C@H](C)[C@H](N)C(=O)N1CCC[C@H]1C(=O)N[C@H](C(=O)O)[C@@H](C)CC [IPI]
pIC50: ~5.30

CC(C)C[C@H](NC(=O)[C@@H]1CCCN1C(=O)[C@@H](N)CC(C)C)C(=O)O [LPL]
pIC50: ~5.30 | RELATIVE POTENCY [%] (signal relative to the highest signal obtained in this test (LPL and IPI)): 100%
